Molecules are shown by their SMILES.

The chains behind the UniProt entries cited, without tags or fusion partners.
UniProt P21397, whole entry: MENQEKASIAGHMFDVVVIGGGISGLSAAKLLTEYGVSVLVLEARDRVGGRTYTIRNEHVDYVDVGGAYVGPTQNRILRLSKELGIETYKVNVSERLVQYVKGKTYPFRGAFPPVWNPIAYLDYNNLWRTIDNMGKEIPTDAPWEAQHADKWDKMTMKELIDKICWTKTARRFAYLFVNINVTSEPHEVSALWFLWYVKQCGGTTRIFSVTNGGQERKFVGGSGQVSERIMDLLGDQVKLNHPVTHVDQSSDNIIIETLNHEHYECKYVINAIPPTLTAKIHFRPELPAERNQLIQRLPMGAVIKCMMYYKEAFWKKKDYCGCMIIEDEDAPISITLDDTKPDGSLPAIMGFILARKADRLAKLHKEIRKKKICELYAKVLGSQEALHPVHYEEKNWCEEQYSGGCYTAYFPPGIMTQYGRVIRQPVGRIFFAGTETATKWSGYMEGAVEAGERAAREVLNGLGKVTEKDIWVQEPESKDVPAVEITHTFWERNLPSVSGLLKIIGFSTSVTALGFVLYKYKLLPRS
UniProt P27338, whole entry: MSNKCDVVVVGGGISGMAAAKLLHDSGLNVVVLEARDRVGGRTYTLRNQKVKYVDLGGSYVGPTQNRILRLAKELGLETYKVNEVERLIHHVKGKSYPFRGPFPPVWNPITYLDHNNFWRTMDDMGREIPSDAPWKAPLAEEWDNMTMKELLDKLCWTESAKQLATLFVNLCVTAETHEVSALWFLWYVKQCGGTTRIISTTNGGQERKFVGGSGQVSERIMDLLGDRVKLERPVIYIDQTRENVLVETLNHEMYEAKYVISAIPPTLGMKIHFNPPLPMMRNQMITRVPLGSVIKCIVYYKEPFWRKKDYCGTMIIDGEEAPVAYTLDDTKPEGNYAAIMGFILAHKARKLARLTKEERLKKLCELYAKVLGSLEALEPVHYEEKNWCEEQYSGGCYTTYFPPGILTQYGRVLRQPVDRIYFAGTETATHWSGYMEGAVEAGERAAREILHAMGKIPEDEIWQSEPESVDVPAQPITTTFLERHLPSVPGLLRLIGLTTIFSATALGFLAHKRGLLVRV

From ChEMBL document CHEMBL4138062, “Pyrazolobenzothiazine-based carbothioamides as new structural leads for the inhibition of monoamine oxidases: design, synthesis, in vitro bioevaluation and molecular docking studies” (Medchemcomm, 2017) come the findings set out here.

For test [1], the target named is Amine oxidase [flavin-containing] A (Homo sapiens, UniProt P21397). Briefly: Inhibition of human MAOA pre-incubated for 10 mins before p-tyramine substrate addition and measured after 10 mins by amplex red reagent-based microplate fluorescence reader analysis.
The target in test [2] is Amine oxidase [flavin-containing] B (Homo sapiens, UniProt P27338).

As a reminder, the IC50 is the concentration that gives 50% inhibition. For `Cc1cccc(C)c1NC(=S)N/N=C/c1ccc(-n2nc3c(c2C)N(C)S(=O)(=O)c2ccccc2-3)cc1`, the figures for the IC50 in test [1] and in test [2] were 0.01 µM and 6.11 µM, respectively.
